Values of other authors in patent publication US12290595B2, “Implantable depots for the controlled release of therapeutic agents” (Foundry Therapeutics, Inc., priority 2017, dated 2025).

Conditions: 28 wt % maraviroc, PVP electrospun nanofiber, 2.5 wt % Tween 20

For maraviroc, the “time to complete release” value is given as “six”.
